EP4782453A1 (Beyang Therapeutics Co., Ltd., priority 2023, dated 2025)

Sequences of proteins named here, by UniProt entry; tags and fusion partners are left off. Residues count along the entry.
UniProt O00255, 1-615 isoform 1: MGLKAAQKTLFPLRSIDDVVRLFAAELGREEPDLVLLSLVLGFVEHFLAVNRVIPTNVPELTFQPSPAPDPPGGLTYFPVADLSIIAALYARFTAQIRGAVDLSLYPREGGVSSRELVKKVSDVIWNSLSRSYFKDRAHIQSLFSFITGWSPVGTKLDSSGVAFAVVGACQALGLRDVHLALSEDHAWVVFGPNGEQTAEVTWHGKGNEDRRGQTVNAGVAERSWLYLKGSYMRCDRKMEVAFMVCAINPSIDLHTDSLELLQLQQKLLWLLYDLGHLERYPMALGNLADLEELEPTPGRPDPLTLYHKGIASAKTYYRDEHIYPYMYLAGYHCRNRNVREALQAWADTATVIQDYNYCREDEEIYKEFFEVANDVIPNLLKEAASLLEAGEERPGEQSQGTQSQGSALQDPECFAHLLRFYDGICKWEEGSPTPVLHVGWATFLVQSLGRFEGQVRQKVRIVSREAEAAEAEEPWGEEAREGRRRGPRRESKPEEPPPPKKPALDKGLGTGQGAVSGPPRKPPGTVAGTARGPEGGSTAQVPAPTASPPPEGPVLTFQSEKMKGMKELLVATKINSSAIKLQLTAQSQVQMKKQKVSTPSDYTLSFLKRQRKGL

What was measured:
Menin-MLL = Menin-MLL (Homo sapiens, UniProt O00255); experiment: Inhibitory activity against Menin-MLL binding (fluorescence polarization); details: read-out: Menin-MLL IC50, 150 nM His-Menin, 15 nM FITC-MLL, 25°C for 60 min
[1] = tested on: MOLM-13 (carrying MLL-AF9); experiment: Inhibition of proliferation of human tumor cells (Alamar Blue, 7 days), MOLM-13; details: read-out: MOLM-13 IC50, MOLM-13 cells (carrying MLL-AF9), method calls the value GI50
Text: (§1) Experimental Example 2: Evaluation of Inhibitory Activity of Compounds Against Proliferation of Human Tumor Cells
(§2) • Human acute lymphoblastic leukemia cells MV-4-11, purchased from American Type Culture Collection, Catalog Number: CRL-9591; • Human acute myeloid leukemia cells MOLM-13, purchased from COBIOER BIOSCIENCES CO., LTD, Catalog Number: CBP60678; • Human acute myeloid leukemia cells KG-1a, purchased from American Type Culture Collection, Catalog Number: CCL-246.1; • Inverted Microscope, purchased from Olympus Tokyo; • Countess™ Automated Cell Counter, purchased from Invitrogen, Model: C10281; and • Multilabel Reader, purchased from Bio-Tek, Model: Synergy HT.
(§3) MV-4-11 cells were cultured in an IMDM medium containing 10% fetal bovine serum, KG-a cells were cultured in an IMDM medium containing 20% fetal bovine serum, or MOLM-13 cells were cultured in an RPMI-1640 medium containing 20% fetal bovine serum, each supplemented with 100 U·mL^-1 penicillin and 100 µg·mL^-1 streptomycin. These cells were cultured at 37°C with 5% CO2. The suspensions of individual cell lines were prepared in their respective media and seeded into 96-well plates at a density of 4,000 cells/well for MV-4-11 and MOLM-13 cells, or 3,000 cells/well for KG-1a cells. On the day of the experiment, a compound stock solution was diluted in a 3-fold or 4-fold gradient using DMSO. Each gradient-diluted stock solution was then further diluted 250-fold with a complete medium to prepare a series of working solutions at different concentrations. Subsequently, 100 µL of working solution (containing a 2-fold concentration series of the test compound) was added to each well, with duplicate wells set up for each concentration.
Seven days after compound addition (on Day 7), an Alamar Blue assay reagent (MCE, HY-111391 / CS-0040317) was added to measure the fluorescence intensity in each well. Wells containing the cells in the growth medium supplemented with 0.1% DMSO (Day 7) served as high-read control wells. The readouts from the wells containing the cells in the growth medium supplemented with 0.1% DMSO on the day of compound addition (Day 0) served as low-reading control well. GraphPad Prism software was used to calculate the concentration required to inhibit 50% of cell proliferation (GI50), which serves as a cell proliferation inhibition activity index. The GI50 (half-maximal inhibitory concentration) of the compound was determined using the following nonlinear fitting formula: 4-Parameter Logistic Model or Sigmoidal Dose-Response Model: Y = Bottom + (Top−Bottom)/(1 + 10^((LogGI50−X) × Hill Slope)), [formula] in which X indicates the logarithm of compound concentration, Y indicates an inhibition rate (% inhibition), Top indicates a readout of high-reading control well, and Bottom indicates a readout of low-reading control well, with Inhibition rate(%inhibition) = (Readout of Compound well−Readout of low−reading control well)/(Read of high−reading control well−Readout of low−reading control well) × 100%. [formula]

MEIS1 gene expression [2] = experiment: Inhibition of MEIS1 gene expression in human tumor cells (qRT-PCR), MV-4-11; details: read-out: MV-4-11 MEISI EC50; MV-4-11 (carrying MLL-AF4); 48 hours of incubation; relative MEIS1 gene expression vs GAPDH
Text: (§4) Experimental Example 3: Evaluation of Inhibitory Activity of Compounds Against MEISI Gene Expression in Human Tumor Cells
(§5) The effect of test samples on MEIS1 gene expression in vitro cultured human leukemia cells MV-4-11 (carrying MLL-AF4), MOLM-13 (carrying MLL-AF9), and OCI-AML3 (carrying NPM1c) was studied.
(§6) • Human acute lymphoblastic leukemia cells MV-4-11, purchased from American Type Culture Collection, Catalog Number: CRL-9591; • Human acute myeloid leukemia cells MOLM-13, purchased from COBIOER BIOSCIENCES CO., LTD, Catalog Number: CBP60678; • Human acute myeloid leukemia cells OCI-AML3, purchased from COBIOER BIOSCIENCES CO., LTD, Catalog Number: CBP60817; • MEIS1 Primer/Probe, purchased from IDT, Catalog Number: 40831613; and • GAPDH Primer/Probe, purchased from IDT, Catalog Number: 22214836.
(§7) MV-4-11 cells were cultured in an IMDM medium containing 10% fetal bovine serum, or MOLM-13 and OCI-AML3 cells were cultured in an RPMI-1640 medium containing 20% fetal bovine serum, each supplemented with 100 U·mL^-1 penicillin and 100 µg·mL^-1 streptomycin. These cells were cultured at 37°C with 5% CO2. The suspensions of individual cell lines were prepared in their respective media and seeded into 48-well plates at a density of 100,000 cells/well. On the day of the experiment, a compound stock solution was diluted in a 6-fold gradient using DMSO. Each gradient-diluted stock solution was then further diluted 250-fold with a complete medium to prepare a series of working solutions at different concentrations. Next, 250 µL of working solution (containing the complete medium with a 2-fold serial concentration of the test compound or a positive control compound, or containing a control complete medium) was added to each well. After 48 hours of incubation, cells from the 48-well plate were collected into 1 mL centrifuge tubes, centrifuged at 1000 rpm for 5 minutes, and the complete medium was removed. Cells were washed twice with 1 mL PBS and centrifuged to remove PBS. Total RNA was extracted using the RNeasy Mini Kit (250) (QIAGEN, 74106). The threshold cycle (Ct) value for gene expression was determined using the HiScript II U+ One Step qRT-PCR Probe Kit (Vazyme) (Vazyme, Q223-01), with 3 replicates per sample. The prepared reaction mixture was placed in an ABI 7500 real-time PCR instrument, and the reaction proceeded following the procedures below. [formula]
(§8) Next, for the relative MEIS1 gene expression, the concentration (EC50) that inhibits 50% of relative MEIS1 gene expression was calculated using GraphPad Prism 8 software. […]

MEIS1 gene expression [3] = experiment: Inhibition of MEIS1 gene expression in human tumor cells (qRT-PCR), MOLM-13; details: read-out: MOLM-13 MEIS1 EC50; MOLM-13 (carrying MLL-AF9); 48 hours of incubation; relative MEIS1 gene expression vs GAPDH
Text: as §4, §5, §6, §7, §8

[4] = tested on: MV-4-11 (carrying MLL-AF4); experiment: Inhibition of proliferation of human tumor cells (Alamar Blue, 7 days), MV-4-11; details: read-out: MV-4-11 IC50, MV-4-11 cells (carrying MLL-AF4), method calls the value GI50
Text: as §1, §2
as §3, with “Subsequently, 100 µL of working solution (containing a 2-fold concentration series of the test compound) was added to each well, with duplicate wells set up for each concentration.” left out
Seven days after compound addition (on Day 7), an Alamar Blue assay reagent (MCE, HY-111391 / CS-0040317) was added to measure the fluorescence intensity in each well. Wells containing the cells in the growth medium supplemented with 0.1% DMSO (Day 7) served as high-read control wells. The readouts from the wells containing the cells in the growth medium supplemented with 0.1% DMSO on the day of compound addition (Day 0) served as low-reading control well. […]

MEIS1 gene expression [5] = experiment: Inhibition of MEIS1 gene expression in human tumor cells (qRT-PCR), OCI-AML3; details: read-out: OCI-AML3 MEIS1 EC50; OCI-AML3 (carrying NPM1c); 48 hours of incubation; relative MEIS1 gene expression vs GAPDH
Text: as §4, §5, §6
MV-4-11 cells were cultured in an IMDM medium containing 10% fetal bovine serum, or MOLM-13 and OCI-AML3 cells were cultured in an RPMI-1640 medium containing 20% fetal bovine serum, each supplemented with 100 U·mL^-1 penicillin and 100 µg·mL^-1 streptomycin. These cells were cultured at 37°C with 5% CO2. […] The threshold cycle (Ct) value for gene expression was determined using the HiScript II U+ One Step qRT-PCR Probe Kit (Vazyme) (Vazyme, Q223-01), with 3 replicates per sample. […]

SMILES | IC50 (Menin-MLL) | IC50 [1] | also measured
CC(=O)N1C2CCC1CN(CCCC(C(C)C)N1CC(c3cc(-c4ccc(F)cc4C(=O)N4CCOC[C@H]4C)c4c(F)nc(C)n4c3)C1)C2 (stereo partly shown) | 16 nM | – | –
Cc1ncc2c(-c3ccc(F)cc3C(=O)N(C(C)C)C3CCC3)cc(N3CCN(C(=O)C4NC5CCC4CC5)CC3)cn12 (stereo not shown) | 55 nM | – | –
C=C1CC2CCC1C(C(=O)N1CCN(c3cc(-c4ccc(F)cc4C(=O)N(CC)C(C)C)c4cnc(C)n4c3)CC1)N2 (stereo not shown) | 120 nM | – | –
Cc1nc(F)c2c(-c3ccc(F)cc3C(=O)N3CCOCC3C)cc(C3CN(C(CCCN4C5CCC4COC5)C(C)C)C3)cn12 (stereo not shown) | 4.4 nM | 4.1 nM | –
CC(=O)N1CC2CCC(C1)N2CCCC(C(C)C)N1CC(c2cc(-c3ccc(F)cc3C(=O)N3CCOC[C@H]3C)c3c(F)nc(C)n3c2)C1 (stereo partly shown) | 4 nM | – | EC50 (MEIS1 gene expression [2]): 13 nM; EC50 (MEIS1 gene expression [3]): 5.5 nM
CC(=O)N1CC2CC1CN2CCCC(C(C)C)N1CC(c2cc(-c3ccc(F)cc3C(=O)N3CCOCC3C)c3cnc(C)n3c2)C1 (stereo not shown) | 9 nM | – | –
CCN(C(=O)c1cc(F)ccc1-c1cc(C2CN(C(CN3CCN(S(C)(=O)=O)CC3)C(C)C)C2)cn2c(C)ncc12)C(C)C (stereo not shown) | 21 nM | – | –
Cc1nc(F)c2c(-c3ccc(F)cc3C(=O)N3CCOCC3C)cc(C3CN(C(CCCN4C5COCC4C5)C(C)C)C3)cn12 (stereo not shown) | 2.2 nM | 6 nM | IC50 [4]: 1.9 nM; EC50 (MEIS1 gene expression [5]): 11 nM; EC50 (MEIS1 gene expression [2]): 2.9 nM; EC50 (MEIS1 gene expression [3]): 2.1 nM
Cc1nc(F)c2c(-c3ccc(F)cc3C(=O)N3CCOC[C@H]3C)cc(C3CN(CC4CCN(C(=O)C5CCOC5)CC4)C3)cn12 (stereo partly shown) | 23.5 nM | 38 nM | IC50 [4]: 19 nM
Cc1ncc2c(-c3ccc(F)cc3C(=O)N3CCOCC3C)cc(N3CCN(C(=O)C4NC5CCC4CC5)CC3)cn12 (stereo not shown) | 144 nM | – | –
CCN(C(=O)c1cc(F)ccc1-c1cc(C2CCN(C(=O)C3NC4CCC3CC4)C2)cn2c(C)ncc12)C(C)C (stereo not shown) | 57 nM | – | IC50 [4]: 68 nM

More lines, main results first:

IC50 (Menin-MLL) | IC50 [1] | SMILES | also measured
2.9 nM | 6 nM | Cc1nc(F)c2c(-c3ccc(F)cc3C(=O)N3CCOCC3C)cc(C3CN(C(CCCN4CC5CC4CO5)C(C)C)C3)cn12 (stereo not shown) | EC50 (MEIS1 gene expression [2]): 7.5 nM; EC50 (MEIS1 gene expression [3]): 2.8 nM
5.3 nM | 5 nM | Cc1ncc2c(-c3ccc(F)cc3C(=O)N3CCOCC3C)cc(C3CN(C(CCCN4CC5CCC4CO5)C(C)C)C3)cn12 (stereo not shown) | –
6.2 nM | 5.3 nM | CC(=O)N1CC2CCC1CN2CCCC(C(C)C)N1CC(c2cc(-c3ccc(F)cc3C(=O)N3CCOC[C@H]3C)c3c(F)nc(C)n3c2)C1 (single isomer, unassigned) [342] | –
2.2 nM | 3.8 nM | CCN(C(=O)c1cc(F)ccc1-c1cc(C2CN(C(CCCN3CC4CC3CO4)C(C)C)C2)cn2c(C)ncc12)C(C)C (stereo not shown) | –
5 nM | – | CC(=O)N1CC2CC1CN2CCCC(C(C)C)N1CC(c2cc(-c3ccc(F)cc3C(=O)N3CCOC[C@H]3C)c3c(F)nc(C)n3c2)C1 (stereo partly shown) | EC50 (MEIS1 gene expression [2]): 15 nM; EC50 (MEIS1 gene expression [3]): 6.2 nM
1.2 nM | 19 nM | Cc1ncc2c(-c3ccc(F)cc3C(=O)N(CCO)C(C)C)cc(C3CN(C(CCCN4CC5CC4CO5)C(C)C)C3)cn12 (single isomer, unassigned) [468-1] | –
8.3 nM | 5.9 nM | CC(=O)N1CC2CCC1CN2CCCC(C(C)C)N1CC(c2cc(-c3ccc(F)cc3C(=O)N3CCOC[C@H]3C)c3c(F)nc(C)n3c2)C1 (single isomer, unassigned) [343] | –
2.6 nM | – | CCN(C(=O)c1cc(F)ccc1-c1cc(C2CN(C(CCCN3CC4CCC3CO4)C(C)C)C2)cn2c(C)ncc12)C(C)C (stereo not shown) | –
4 nM | – | Cc1ncc2c(-c3ccc(F)cc3C(=O)N(CCO)C(C)C)cc(C3CN(C(CCCN4CC5CC4CO5)C(C)C)C3)cn12 (single isomer, unassigned) [468] | –
4.5 nM | 38 nM | CCN(C(=O)c1cc(F)ccc1-c1cc(C2CN(C(CCCN3CC4CC3CO4)C(C)C)C2)cc2c1cnn2C)C(C)C (stereo not shown) | –
